Source: US8952036B2, “Benzoic acid derivative MDM2 inhibitor for the treatment of cancer” (Amgen Inc., priority 2013, dated 2015)

Tested on: SJSA-1 cells
Assay: cells
Conditions: Homo sapiens, SJSA-1, 16 h, read-out: Cellular (SJSA-1) EdU assay IC50 (μM) 10% human serum

| SMILES | IC50 [µM] |
| --- | --- |
| CC(C)(C)S(=O)(=O)C[C@H](C1CC1)N1C(=O)[C@@](C)(CC(=O)O)C[C@H](c2cccc(Cl)c2)[C@H]1c1ccc(Cl)c(F)c1 [Example 4, 2-((3R,5R,6S)-1-((S)-2-(tert-Butylsulfonyl)-1-cyclopropylethyl)-6-(4-chloro-3-fluorophenyl)-5-(3-chlorophenyl)-3-methyl-2-oxopiperidin-3-yl)acetic acid] | 0.0012 |
| COc1cc(NC(=O)C[C@@]2(C)C[C@H](c3cccc(Cl)c3)[C@@H](c3ccc(Cl)c(F)c3)N([C@H](CS(=O)(=O)C(C)(C)C)C3CC3)C2=O)ccc1C(=O)O [Example 5, 4-(2-((3R,5R,6S)-1-((S)-2-(tert-Butylsulfonyl)-1-cyclopropylethyl)-6-(4-chloro-3-fluorophenyl)-5-(3-chlorophenyl)-3-methyl-2-oxopiperidin-3-yl)acetamido)-2-methoxybenzoic acid] | 0.0017 |
